# Measured values reported in patent publication US20120208182A1, “GENETIC TEST FOR LIVER COPPER ACCUMULATION IN DOGS AND LOW COPPER PET DIET” (priority 2009, published 2012).
# Experiment: Pharmacokinetic study of oral zinc gluconate, plasma zinc by atomic absorption spectrometry
# Type: in vivo, Labrador Retrievers
# Protocol: Two unrelated nine-year old, healthy Labrador Retrievers (1 female and 1 male) were used in a pharmacokinetic study. Food was withheld for a 12-hour period prior to oral administration of zinc, and during the initial 6-hour testing period. Water was freely available. Oral zinc gluconate was administered at a dose of 10 mg/kg in dog 1, and at a dose of 5 mg/kg in dog 2. Heparinized blood samples (4 ml) were collected from the jugular vein before dosing (time 0) and 15, 30, 45, 60, 90, 120 minutes, and 4, 8, 12 and 24 hours after application of the drug. Plasma was stored at
# −20° C. until analysis for zinc using atomic absorption spectrometry.
# Pharmacokinetic parameters (WinNonlin 4.0.1. (Pharsight Corporation, 800 West El Camino Real, Mountain View, Calif., USA) and statistical analysis (SPSS 11.0 for windows, 2001, SPSS Inc., Chicago, Ill., USA) were calculated by use of commercially available software packages. Due to small group sizes a non-parametric statistical test was used for comparison between groups. A Mann-Whitney test was used to detect a difference between hepatic copper concentrations before and after treatment with diet and zinc-gluconate (group-1) at two control examinations (recheck-1 and recheck-2), and after treatment with diet and placebo (group-2) at both control examinations. […]
# Pharmacokinetic parameters calculated from plasma zinc concentrations measured in two dogs after oral application of 10 mg/kg (dog 1) and 5 mg/kg (dog 2) elemental zinc were: […]
substance,measurement,setting,value
zinc gluconate,Cl_F: clearance in relation to the bioavailability,"Dog 1, 10 mg/kg oral",2.630773 mL/min/kg
same,Cmax: maximal clearance,"Dog 1, 10 mg/kg oral",2660 ng/mL
same,Cl_F: clearance in relation to the bioavailability,"Dog 2, 5 mg/kg oral",1.603 mL/min/kg
same,Cmax: maximal clearance,"Dog 2, 5 mg/kg oral",1755 ng/mL
same,calculated half-life t½,from both dogs,15.1 h
